Test system: P. berghei sporozoites
Details: 1 hour at 37° C., 50 μg/ml

## dextran-sulfate
  CSP reactions of treated sporozoites (crude measurement of viability): in the same proportion and with similar intensity as sporozoites incubated in medium alone

Source: US20030119733A1, “Compositions and methods for inhibiting hepatocyte invasion by malarial sporozoites” (New York University, priority 1992, published 2003)
